The target of this assay is Tyrosine-protein kinase JAK2 (Homo sapiens, UniProt O60674). In kind it is tissue-based, Blood, T-cell.

Protein sequences, listed by entry. Tags and fused reporters are not part of them. Lines headed by an entry give the natural chain unless they say otherwise; changes in a name come on top.
UniProt O60674: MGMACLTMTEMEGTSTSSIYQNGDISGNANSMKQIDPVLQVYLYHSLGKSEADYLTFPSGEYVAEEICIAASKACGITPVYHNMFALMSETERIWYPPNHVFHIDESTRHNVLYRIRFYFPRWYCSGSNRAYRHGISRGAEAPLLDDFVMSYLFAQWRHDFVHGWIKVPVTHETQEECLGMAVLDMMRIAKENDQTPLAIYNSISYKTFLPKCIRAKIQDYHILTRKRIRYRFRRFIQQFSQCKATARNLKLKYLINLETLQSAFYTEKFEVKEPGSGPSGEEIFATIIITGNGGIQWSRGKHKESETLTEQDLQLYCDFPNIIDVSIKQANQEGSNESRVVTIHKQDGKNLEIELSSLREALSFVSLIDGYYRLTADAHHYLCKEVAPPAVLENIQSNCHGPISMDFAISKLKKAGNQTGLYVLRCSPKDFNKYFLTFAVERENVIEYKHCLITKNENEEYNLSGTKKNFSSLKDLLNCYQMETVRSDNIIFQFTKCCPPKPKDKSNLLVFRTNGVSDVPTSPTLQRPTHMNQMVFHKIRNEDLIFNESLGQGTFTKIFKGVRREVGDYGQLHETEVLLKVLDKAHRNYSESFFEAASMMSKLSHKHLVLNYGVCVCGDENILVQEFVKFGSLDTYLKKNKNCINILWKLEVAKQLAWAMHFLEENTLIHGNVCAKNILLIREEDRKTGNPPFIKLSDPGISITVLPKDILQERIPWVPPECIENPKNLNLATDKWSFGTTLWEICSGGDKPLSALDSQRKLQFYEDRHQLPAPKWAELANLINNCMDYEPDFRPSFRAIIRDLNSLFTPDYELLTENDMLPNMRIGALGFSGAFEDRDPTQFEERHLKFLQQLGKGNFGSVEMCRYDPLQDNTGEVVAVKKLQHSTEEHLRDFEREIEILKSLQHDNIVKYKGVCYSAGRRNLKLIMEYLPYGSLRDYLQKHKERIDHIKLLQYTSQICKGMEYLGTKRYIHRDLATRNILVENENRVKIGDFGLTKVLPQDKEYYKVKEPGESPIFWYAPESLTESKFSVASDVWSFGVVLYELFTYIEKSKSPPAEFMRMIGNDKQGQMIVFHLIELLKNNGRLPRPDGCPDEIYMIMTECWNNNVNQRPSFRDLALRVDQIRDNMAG

For `CCS(=O)(=O)N1CC(CC#N)(n2cc(-c3ncnc4[nH]ccc34)cn2)C1` [BARICITINIB], the IC50 (read-out: IC50) came out at 63.8 nM and the IC50 (read-out: pIC50 (converted)) was 63.8 nM.

For the origin of these results see ChEMBL document CHEMBL5678809, “Preclinical characterization of GLPG0634, a selective inhibitor of JAK1, for the treatment of inflammatory diseases” (J Immunol, 2013).
